The record followed here is paper PMC6089501 (Journal of Medicinal Chemistry, 2018).

This data set in a line: in vitro. Particulars: dog, MDCK-MDR1.

SMILES strings stand for the structures.

A word on the Papp A→B: it is how fast a substance crosses the layer from the apical side. A higher Papp A→B goes with fast passage. On to `C=C[C@H]1C[N@@]2CC[C@H]1C[C@@H]2[C@@H](O)c1ccnc2ccc(OC)cc12` [Quinidine, reference compound], for which the Papp A→B was 4 ×10⁻⁶ cm/s.
